## AlphaSeq binding of Ab-14 light chain variants to a spike HR2 peptide

The measurements come from Engelhart et al. 2022 (doi:10.1038/s41597-022-01779-4) through the FLAb antibody collection.

Antigen: PDVDLGDISGINAS, a 14-residue peptide of the SARS-CoV-2 spike HR2 region.

Ab-14 is the parent antibody, in scFv form: VH, then three GGGGS repeats, then VL. The heavy chain is unchanged in all variants.
VH: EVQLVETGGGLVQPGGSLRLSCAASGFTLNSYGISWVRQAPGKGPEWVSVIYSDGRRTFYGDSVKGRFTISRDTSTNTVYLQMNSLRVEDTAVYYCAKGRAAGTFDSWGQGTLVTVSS
VL: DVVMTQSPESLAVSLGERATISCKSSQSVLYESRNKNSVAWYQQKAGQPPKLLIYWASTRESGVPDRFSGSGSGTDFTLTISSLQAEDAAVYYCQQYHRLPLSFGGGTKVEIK

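The library (AAYL50) carries one to three amino acid substitutions per variant, with no insertions or deletions. AlphaSeq pools MATa yeast showing the antibodies with MATalpha yeast showing the peptide. After mating in shaken culture at 30 °C for 16 h, diploids were selected and their barcode pairs sequenced. Scores were corrected for input abundance and mapped to Kd with protein pairs of known affinity run in the same pool. The assay was run in three technical replicates.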

Variants are written as CDR1, CDR2 and CDR3 of the light chain (limits as in the source). Parent: KSSQSVLYESRNKNSVA, WASTRES, QQYHRLPLS.
Affinities are written as log10 Kd with Kd in nM; a lower number is a better binder.
Replicates are averaged; those with no signal do not enter the mean.
Where no diploid with the target was found in any replicate, the entry reads "no signal": below detection, most likely a poor binder, though not proof of it.
Nonspecific signal, from three strains lacking the peptide, appeared in 18% of pairings of library AAYL50, centred on 4.19 (5% of these signals below 2.99); values are not corrected for it.

CDR-L1,CDR-L2,CDR-L3,mean log10 Kd (nM),detected
KSSQSELYESRNKNSVA,WASTRES,QQYHRPKLS,no signal,0 of 3
KFSQSVLYESRNKNSVA,WNSTRQS,QQYHRLPLS,1.74,3 of 3
KSSTSVLYESRNKNSVA,WAYTAES,QQYHRLPLS,4.26,1 of 3
KSSQSVLYLSRNPNSVA,WASTRES,QQYHRLPLS,0.88,3 of 3
LSSQSHLYESRNKNSVA,WASTIES,QQYHRLPLS,5.45,2 of 3
KSSQSVLYESRNKNSVA,WAITRES,ISYHRLPLS,4.34,2 of 3
KSSQSVLYESGNKNPVA,WASTRES,QQYHRLPLS,0.40,3 of 3
KSSQSVLYESRNKNSVA,WACTREP,QQFHRLPLS,no signal,0 of 3
KSSQSVLYESRNKNSVA,WASNRES,QQWHRQPLS,no signal,0 of 3
DSSQSVLYESKNKNSVA,WASTRES,QQYHRHPLS,no signal,0 of 3
KSSQSVLYESRFKNSVA,WASTREC,QQYHRLPES,2.77,3 of 3
KSSQSVLYESRNKNSVA,WASMRES,QAYHRLPLS,1.72,3 of 3
KSSQSELYESRNKNSVL,WASTRES,QQYHRLPYS,no signal,0 of 3
KSSQSVLYTSRNKNSVA,WAWTRES,MQYHRLPLS,4.95,2 of 3
KSSQSILYESRNKNSVA,WASTRES,QYYHQLPLS,3.76,3 of 3
KLSQSVLYESRNKNSVA,WASTRES,YQYHRFPLS,1.92,3 of 3
KYSQSVLYESRNKNSVA,WASTRES,QQYHRLKLS,no signal,0 of 3
KSSQSVLLESCNKNSVA,WASTRES,QQRHRLPLS,1.15,3 of 3
KSSQSVLYESRNKNSVA,WASTRES,QQWHRQPVS,4.86,3 of 3
KSSQSVLYEHRNKTSVA,WASTRES,QQVHRLPLS,3.64,1 of 3
KSSQSVSYESRNKNSVA,WASNRTS,QQYHRLPLS,1.40,3 of 3
KSSCSVLYESRNKNSVH,EASTRES,QQYHRLPLS,1.33,3 of 3
KSSQPVLYESENKNSVA,WASTRES,IQYHRLPLS,0.94,3 of 3
KKSQSVLYESRNKNSVA,WASTTES,QQNHRLPLS,no signal,0 of 3
KSSQSVLYESRNKGSVA,WASTREI,QQYHRLSLS,2.91,3 of 3
KSSQSVLYESRNKNSVN,WASTKES,QQYHRLPLS,no signal,0 of 3
KEMQSVLYESRNKNSVA,WASTREV,QQYHRLPLS,1.02,3 of 3
KSSYSVLYESRNKFSVA,WASTRES,QQYHRLPLS,no signal,0 of 3
KSSQSVLYESRNKNSVA,WASTRES,VQYHRLPLK,no signal,0 of 3
LSSQSVLYESRNKNSVW,WASTREH,QQYHRLPLS,5.15,3 of 3

Second part, the sequence after the result:

mean log10 Kd (nM),detected,CDR-L1,CDR-L2,CDR-L3
1.57,3 of 3,RSSQSVLYESRNKNSVA,WASTREW,QQYHRLPQS
no signal,0 of 3,KSSHSVLYESRNKESVA,WASTRES,QQYHRLRLS
3.54,3 of 3,ASSQSVLYESRNKHSVA,WASTRES,QYYHRLPLS
3.72,3 of 3,KSSQSILYESRNKNSVA,GPSTRES,QQYHRLPLS
no signal,0 of 3,KSSQSVLYESRNKNSVA,WAKLRHS,QQYHRLPLS
no signal,0 of 3,KSSQSVLYESRNKNSTA,WASTRSS,QQYHRLQLS
0.87,3 of 3,KSSQSVLYESRNKNSVA,WASTRMS,QAYHRLVLS
3.98,2 of 3,KYSQSNLYESRNKNSVA,WASTRHS,QQYHRLPLS
2.25,3 of 3,KSSQSHLYESDNKNSVA,WAITRES,QQYHRLPLS
2.78,3 of 3,KFSQYVLYESRNKNSVA,WESTRES,QQYHRLPLS
3.30,1 of 3,FSSQSVLYESRNKNYVA,WASWRES,QQYHRLPLS
no signal,0 of 3,KSSFSVLYESRNKNSVA,WASTRES,QPYHRLPLP
1.31,3 of 3,KSSQNVLYELRNKNSVA,WASTRES,QQYHRLPLS
no signal,0 of 3,KSSQSVLYESRNKNSVE,WASLRGS,QQYHRLPLS
no signal,0 of 3,KSSQSVLYESRNKNSHA,WASTRES,QQAARLPLS
1.85,3 of 3,KSSQSVLYESMNKNSVA,WASTREG,QQYHRLDLS
no signal,0 of 3,KSSQSVLYESRNKTNVA,WASYRES,QQYHRLPLS
4.02,1 of 3,KSSPIVLYESRNKNSVA,WASTRES,QPYHRLPLS
4.33,2 of 3,KSSQSVLMESRNKNSVA,WASTRES,LQYHHLPLS
3.56,2 of 3,KCSQSVLYESKNKNSVA,WASGRES,QQYHRLPLS
4.29,1 of 3,KSKQSVLYESRNKNSVA,PSSTRES,QQYHRLPLS
no signal,0 of 3,KSSQSHLYESRNKNSVA,WASTRES,QQYIRLPLK
0.75,3 of 3,KSSQSPLYESRNANSVA,WASTRES,QQYHRLPLS
2.44,3 of 3,KSSHSVLYESRNKNSVA,WASTREK,QQYHRLPLL
1.63,3 of 3,KSSQKVLYQSRNKNSVA,WASTRES,QQYDRLPLS
3.61,3 of 3,KSSQSVRYCSRNKNSVA,WASTRES,QQYHELPLS
2.75,1 of 3,KNSQSVLYESRNKNSVA,WASTREP,QQYCRLPLS
no signal,0 of 3,KSSQWVLYYSRNKNSVA,WASTRES,QQYHRHPLS
4.57,1 of 3,KSDQSVLYESRNKNSWA,WASTRES,FQYHRLPLS
2.65,3 of 3,KSSQSVLYESRNKNDVA,WVSTRRS,QQYHRLPLS
3.93,2 of 3,KSSQSVLYESENKNSVA,WASTNES,QQYHRFPLS

5 of these entries, quoted again:

CDR-L1	CDR-L2	CDR-L3	mean log10 Kd (nM)	detected
KSSHSVLYESRNKESVA	WASTRES	QQYHRLRLS	no signal	0 of 3
KFSQYVLYESRNKNSVA	WESTRES	QQYHRLPLS	2.78	3 of 3
KSSQSVLYESRNKNSTA	WASTRSS	QQYHRLQLS	no signal	0 of 3
KSSQSELYESRNKNSVA	WASTRES	QQYHRPKLS	no signal	0 of 3
KFSQSVLYESRNKNSVA	WNSTRQS	QQYHRLPLS	1.74	3 of 3